Test results as given in patent publication US12606546B2, “Small molecule inhibitors of calcium channel activity and uses thereof” (Arizona Board of Regents on Behalf of the University of …, priority 2020, dated 2026).

The chains behind the UniProt entries cited, without tags or fusion partners.
UniProt P35372, whole entry: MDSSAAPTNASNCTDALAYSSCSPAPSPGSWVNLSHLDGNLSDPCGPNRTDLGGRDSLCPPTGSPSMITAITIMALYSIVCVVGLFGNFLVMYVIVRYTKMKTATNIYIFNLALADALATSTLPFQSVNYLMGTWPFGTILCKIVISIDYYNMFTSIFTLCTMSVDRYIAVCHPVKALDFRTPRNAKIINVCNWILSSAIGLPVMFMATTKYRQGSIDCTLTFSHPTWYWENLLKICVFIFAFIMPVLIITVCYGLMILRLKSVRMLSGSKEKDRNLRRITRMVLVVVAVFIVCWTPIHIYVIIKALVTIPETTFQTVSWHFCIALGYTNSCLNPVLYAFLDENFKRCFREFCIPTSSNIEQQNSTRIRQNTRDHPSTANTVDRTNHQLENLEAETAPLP
UniProt P41143, whole entry: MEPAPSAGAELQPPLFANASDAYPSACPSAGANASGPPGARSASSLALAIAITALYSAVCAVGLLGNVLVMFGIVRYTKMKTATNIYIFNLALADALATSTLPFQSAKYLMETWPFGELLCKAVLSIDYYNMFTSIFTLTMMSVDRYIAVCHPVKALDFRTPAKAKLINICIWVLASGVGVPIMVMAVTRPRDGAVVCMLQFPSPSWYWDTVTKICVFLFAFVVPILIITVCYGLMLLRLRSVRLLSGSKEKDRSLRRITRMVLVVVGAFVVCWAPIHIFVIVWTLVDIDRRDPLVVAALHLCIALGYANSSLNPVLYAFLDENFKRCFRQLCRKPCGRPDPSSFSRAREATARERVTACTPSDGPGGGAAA

How the values were obtained:
Settings in all cases: CHO cells
[1] = target: human kappa opioid receptor (KOR) (Homo sapiens, UniProt P41145); test: Competition radioligand binding vs 3H-diprenorphine, KOR
[2] = target: human mu opioid receptor (MOR) (Homo sapiens, UniProt P35372); test: Competition radioligand binding vs 3H-diprenorphine, MOR
[3] = target: human delta opioid receptor (DOR) (Homo sapiens, UniProt P41143); test: Competition radioligand binding vs 3H-diprenorphine, DOR

## C[C@@H](c1ccccc1)n1nnnc1[C@@H](c1ccsc1)N1CCC(n2c(=O)[nH]c3ccccc32)CC1
[1]
  concentration up to which no binding to the opioid receptor, KOR: > 10 Mm
  concentration up to which no competition binding was produced, KOR: > 10 µM
[1]; n=3
  Ki, KOR: 5bk was reported as “Not Converged”
[2]
  concentration up to which no binding to the opioid receptor, MOR: > 10 Mm
  concentration up to which no competition binding was produced, MOR: > 10 µM
[2]; n=3
  Ki, MOR: 5bk was reported as “Not Converged”
[3]
  concentration up to which no binding to the opioid receptor, DOR: > 10 Mm
  concentration up to which no competition binding was produced, DOR: > 10 µM
[3]; n=3
  Ki, DOR: 5bk was reported as “Not Converged”
